For assay [1], the target named is T1, human 5-hydroxytryptamine-2C (h5-HT2C) receptor (Homo sapiens, UniProt P28335).
T1 construct: expressed in transfected cells; host or cells: CHO (Chinese Hamster Ovary) cells; membrane preparation
Briefly: [125I]DOI binding to membranes of CHO cells expressing the human 5-HT2C receptor. To be noted: reference compounds, [125I]DOI displacement, read-out: Ki (95% confidence interval).

By UniProt entry, the sequences of proteins in these tests, tags left out. Residues count along the entry.
UniProt P28335, 33-458: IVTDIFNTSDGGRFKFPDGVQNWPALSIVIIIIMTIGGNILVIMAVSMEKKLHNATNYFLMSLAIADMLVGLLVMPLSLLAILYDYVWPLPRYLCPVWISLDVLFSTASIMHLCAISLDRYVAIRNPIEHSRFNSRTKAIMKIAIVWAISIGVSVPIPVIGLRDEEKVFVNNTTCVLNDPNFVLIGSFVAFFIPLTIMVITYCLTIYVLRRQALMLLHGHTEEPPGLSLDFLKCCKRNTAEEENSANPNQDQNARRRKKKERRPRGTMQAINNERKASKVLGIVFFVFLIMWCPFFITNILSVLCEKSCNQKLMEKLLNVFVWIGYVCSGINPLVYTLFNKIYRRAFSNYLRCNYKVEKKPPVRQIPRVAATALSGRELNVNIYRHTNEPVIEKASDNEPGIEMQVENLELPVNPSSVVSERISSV

In a further assay the target is human 5-HT2C receptor (Homo sapiens, UniProt P28335). As to the kind of experiment: Calcium mobilization (FLIPR) in CHO cells stably expressing the human 5-HT2C receptor. To be noted: reference compounds, h5-HT2C CHO cells. Type of assay: cell-based.

`Clc1cccc(N2CCNCC2)c1` [mCPP, meta-chlorophenylpiperazine, reference compound]: in assay [1], the Ki (in general, a measure of affinity in units of concentration, obtained from inhibition or displacement) was determined as 6.5 nM. For the same compound, the concentration for a half-maximal effect (EC50) (in general, the concentration at which the effect is half-maximal) at human 5-HT2C receptor is 5.4 nM.

The record behind these values is patent publication US7368477B2, “Benzofuranyl alkanamine derivatives and uses thereof” (Wyeth, priority 2005, dated 2008).
